BindingDB's records for doi:10.1021/acschembio.6b00217 (Broad Institute, 2016)

By UniProt entry, the sequences of proteins in these tests, tags left out. Where a name states a change or a piece, a line headed by the entry shows the natural chain unless it says otherwise.
UniProt Q9H0K1: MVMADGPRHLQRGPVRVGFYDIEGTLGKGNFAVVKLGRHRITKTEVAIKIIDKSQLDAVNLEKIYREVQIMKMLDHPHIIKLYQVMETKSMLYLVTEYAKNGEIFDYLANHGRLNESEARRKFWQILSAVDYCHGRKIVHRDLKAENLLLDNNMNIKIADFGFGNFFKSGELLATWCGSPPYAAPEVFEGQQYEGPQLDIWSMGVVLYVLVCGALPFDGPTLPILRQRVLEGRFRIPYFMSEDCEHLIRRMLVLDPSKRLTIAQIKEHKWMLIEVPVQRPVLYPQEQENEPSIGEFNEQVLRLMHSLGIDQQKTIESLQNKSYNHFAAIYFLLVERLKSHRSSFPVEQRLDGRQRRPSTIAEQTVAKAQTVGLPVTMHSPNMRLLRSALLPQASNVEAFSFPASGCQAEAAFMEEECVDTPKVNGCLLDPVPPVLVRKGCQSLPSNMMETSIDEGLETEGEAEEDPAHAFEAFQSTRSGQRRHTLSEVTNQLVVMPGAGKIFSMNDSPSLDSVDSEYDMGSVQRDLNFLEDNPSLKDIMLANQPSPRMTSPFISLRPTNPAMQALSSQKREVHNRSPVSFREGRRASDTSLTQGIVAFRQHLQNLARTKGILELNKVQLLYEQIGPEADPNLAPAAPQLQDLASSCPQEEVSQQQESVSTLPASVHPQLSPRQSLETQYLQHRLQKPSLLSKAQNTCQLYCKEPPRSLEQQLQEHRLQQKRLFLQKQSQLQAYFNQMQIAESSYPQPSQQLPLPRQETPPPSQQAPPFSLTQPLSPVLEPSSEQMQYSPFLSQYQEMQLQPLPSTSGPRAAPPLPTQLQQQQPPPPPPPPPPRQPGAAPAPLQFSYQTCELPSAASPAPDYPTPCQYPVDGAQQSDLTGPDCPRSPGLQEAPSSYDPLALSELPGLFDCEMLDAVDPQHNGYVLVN

Target: Serine/threonine-protein kinase SIK2 (Homo sapiens, UniProt Q9H0K1)
Experiment: Caliper-based Mobility Shift Assay
Settings: pH 8
Method: IC50‘s for HG-9-91-01 derivatives were measured by Caliper-based mobility shift assay (PerkinElmer). […] Reactions were quenched by adding 20 mM EDTA (pH 8) after 1 hr, and percentage of substrate conversion was measured by LabChip EZ Reader II (PerkinElmer).

Molecule `COc1ccc(N2C(=O)N(c3c(C)cccc3Cl)Cc3cnc(Nc4ccc(N5CCN(C)CC5)cc4)nc32)c(OC)c1` [HG-9-91-01 derivative, 2] has an IC50 of 19.5 nM.
